What all share (format): functional, cell-based
For assay [1], the target named is T1, Metabotropic glutamate receptor 2 (Rattus norvegicus, UniProt P31421). The assay is described as follows: Agonist activity at SNAP tagged rat mGlu2 transfected HEK293 cells by TR-FRET assay. A general note: TR-FRET usually uses a lanthanide donor and a delayed reading to cut background.
Assay [2] concerns the target T1, Metabotropic glutamate receptor 2. The experiment in a line: Agonist activity at SNAP tagged rat mGlu2 transfected HEK293 cells preincubated with antagonist LY-341495 followed by compound addition by TR-FRET assay. The method in brief:
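SNAP-tagged rat mGlu2 in HEK293 labeled 24 h post-transfection, 1 h at 37 °C with 100 nM SNAP-Lumi4-Tb and 60 nM SNAP-Green. Cells preincubated with LY341495 (1 μM in methods; 0.3 μM stated in text), washed, agonist dose-response added. TR-FRET: 337 nm excitation, 620/520 nm emission, acceptor ratio of early over late time windows.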

Chains of the proteins cited; added tags and fusions are not shown. Lines headed by an entry give the natural chain unless they say otherwise; changes in a name come on top.
UniProt P31421: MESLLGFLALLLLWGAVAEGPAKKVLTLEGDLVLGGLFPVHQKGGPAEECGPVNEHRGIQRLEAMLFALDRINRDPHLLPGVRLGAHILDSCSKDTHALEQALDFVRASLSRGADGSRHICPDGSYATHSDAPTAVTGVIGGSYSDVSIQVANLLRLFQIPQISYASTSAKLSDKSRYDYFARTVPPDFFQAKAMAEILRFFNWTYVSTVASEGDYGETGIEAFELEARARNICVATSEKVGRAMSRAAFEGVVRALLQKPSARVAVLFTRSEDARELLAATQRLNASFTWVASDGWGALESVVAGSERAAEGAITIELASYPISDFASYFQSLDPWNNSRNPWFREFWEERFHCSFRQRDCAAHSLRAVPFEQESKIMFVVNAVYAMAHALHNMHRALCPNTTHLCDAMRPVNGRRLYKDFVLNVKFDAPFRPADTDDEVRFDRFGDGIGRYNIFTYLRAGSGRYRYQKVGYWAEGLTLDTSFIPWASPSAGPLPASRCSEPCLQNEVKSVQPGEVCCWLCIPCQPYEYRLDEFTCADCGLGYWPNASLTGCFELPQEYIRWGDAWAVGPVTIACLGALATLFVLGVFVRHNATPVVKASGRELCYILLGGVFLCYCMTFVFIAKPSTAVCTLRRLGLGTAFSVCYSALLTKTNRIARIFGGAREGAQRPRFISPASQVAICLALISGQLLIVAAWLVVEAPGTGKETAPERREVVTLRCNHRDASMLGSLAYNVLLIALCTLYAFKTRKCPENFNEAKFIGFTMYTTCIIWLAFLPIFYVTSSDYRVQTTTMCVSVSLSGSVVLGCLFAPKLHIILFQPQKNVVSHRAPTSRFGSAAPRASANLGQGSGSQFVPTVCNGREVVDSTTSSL
UniProt P23385: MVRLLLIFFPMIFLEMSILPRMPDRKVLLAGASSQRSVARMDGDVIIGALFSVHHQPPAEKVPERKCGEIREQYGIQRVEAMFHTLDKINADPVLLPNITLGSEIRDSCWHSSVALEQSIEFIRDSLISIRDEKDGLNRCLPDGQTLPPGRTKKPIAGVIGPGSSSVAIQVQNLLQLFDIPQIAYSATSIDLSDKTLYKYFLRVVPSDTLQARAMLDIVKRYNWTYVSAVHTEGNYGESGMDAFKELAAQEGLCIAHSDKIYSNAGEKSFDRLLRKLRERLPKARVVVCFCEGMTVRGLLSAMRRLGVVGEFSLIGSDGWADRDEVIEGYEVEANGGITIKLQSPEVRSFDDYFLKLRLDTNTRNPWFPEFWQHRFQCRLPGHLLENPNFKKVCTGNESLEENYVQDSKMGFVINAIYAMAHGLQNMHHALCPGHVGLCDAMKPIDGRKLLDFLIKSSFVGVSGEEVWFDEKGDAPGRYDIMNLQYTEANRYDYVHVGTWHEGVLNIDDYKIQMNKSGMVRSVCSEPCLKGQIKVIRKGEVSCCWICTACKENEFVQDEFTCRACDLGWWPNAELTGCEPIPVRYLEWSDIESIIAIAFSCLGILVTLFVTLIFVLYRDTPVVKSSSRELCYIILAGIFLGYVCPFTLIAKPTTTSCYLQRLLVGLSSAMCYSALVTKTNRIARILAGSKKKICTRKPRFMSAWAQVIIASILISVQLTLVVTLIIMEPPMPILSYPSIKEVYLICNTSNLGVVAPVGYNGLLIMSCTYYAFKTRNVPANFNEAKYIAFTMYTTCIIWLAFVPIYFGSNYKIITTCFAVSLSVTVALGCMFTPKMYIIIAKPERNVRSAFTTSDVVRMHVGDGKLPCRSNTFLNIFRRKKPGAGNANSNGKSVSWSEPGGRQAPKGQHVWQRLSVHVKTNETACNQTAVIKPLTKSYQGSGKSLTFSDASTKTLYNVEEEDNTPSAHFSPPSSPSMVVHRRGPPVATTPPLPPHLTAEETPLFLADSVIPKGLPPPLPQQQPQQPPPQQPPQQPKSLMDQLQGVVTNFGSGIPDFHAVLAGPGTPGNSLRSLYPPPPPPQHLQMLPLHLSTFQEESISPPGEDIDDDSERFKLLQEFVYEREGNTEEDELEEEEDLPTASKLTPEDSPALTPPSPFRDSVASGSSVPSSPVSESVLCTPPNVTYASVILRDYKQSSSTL

For assay [3], the target named is Metabotropic glutamate receptor 1 (Rattus norvegicus, UniProt P23385). The experiment in a line: Agonist activity at rat mGlu1 transfected in HEK293 cells by IP-one HTRF assay. The method in brief:
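HEK293 cells transiently electroporated with rat receptor plasmid plus EAAC1 Glu transporter, plated 150 000 cells/well on polyornithine, serum-free Glutamax DMEM ≥2 h before assay. At 24 h, washed in Krebs buffer and stimulated 30 min with compound in 50 mM LiCl. IP1 read by HTRF, at least duplicates, EC50 from 2–5 experiments.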

This note sets out measurements from ChEMBL document CHEMBL5537160, “Design, Synthesis, Pharmacology, and In Silico Studies of (1S,2S,3S)-2-((S)-Amino(carboxy)methyl)-3-(carboxymethyl)cyclopropane-1-carboxylic Acid (LBG30300): A Picomolar Potency Subtype-Selective mGlu2 Receptor Agonist” (J Med Chem, 2024).

On to `N[C@@]1(C(=O)O)CC[C@H]2[C@H](C(=O)O)[C@H]21`, for which the results for the EC50 in assay [1] (read-out: EC50), in assay [1] (read-out: pEC50 (converted)) and in assay [2] were 63 nM, 229 nM and 229 nM, respectively.
With `N[C@@H](Cn1oc(=O)[nH]c1=O)C(=O)O` [QUISQUALATE], the EC50 in assay [3] (read-out: EC50) is 79 nM; in assay [3] (read-out: pEC50 (converted)), 60.3 nM.
